The values that follow come from publication PMC4076210, “Discovery of Novel AKT Inhibitors with Enhanced Anti-Tumor Effects in Combination with the MEK Inhibitor” (PLoS ONE, 2014).

The series in a line: Compound concentration in blood and tumor (HPLC/MS/MS). The series is classed as in vivo, mouse. The method, then:
Protein lysates were analyzed by phospho-PRAS40 ELISA according to the methods described above. Concentration of the test compounds in the tissue and blood was analyzed using protein precipitation with acetonitrile, followed by HPLC/MS/MS analysis using positive ion atmospheric pressure chemical ionization or Turbo ionspray ionization (API 4000 or API 5000, Applied Biosystems). The lower level of detection of compound was 10 ng/mL and the assays were linear over a 100- to a 1000-fold drug concentration range.
The pharmacodynamic studies were carried out in SCID mice bearing BT474 tumor xenografts. […] Protein lysates were prepared and the phospho-PRAS40 ELISA was performed on tumor samples according to the methods described in the main text. Concentration of the test compounds was analysed by HPLC/MS/MS analysis.

Where “and” joins values, the source holds several entries; their conditions need not be identical. Equal entries are not always repeated.

On to `Cn1ncc(Cl)c1-c1cc(C(=O)N[C@H](CN)Cc2cccc(F)c2)sc1Cl` [GSK2110183], for which the “blood concentrations resulting in 60% inhibition of phospho-PRAS40” value (100 mg/kg QDx7, time course) lay in the range of 3 to 4 µM. Moreover, where the note is “SCID, mouse, whole blood, 100 mg/kg QDx7 oral, 2 h post last dose, read-out: circulating (blood) concentration”, the concentration at 2 h is ~3 µM and ~1500 ng/mL.
